# Test results as given in patent US7932279B2 (ArQule, Inc., priority 2007, dated 2011).
# Biological target: HSP90α (Homo sapiens, UniProt P07900)
# Experiment: HSP90 binding assay (fluorescent ELISA, competition with biotinylated Geldanamycin)
compound,measurement,value
"C=CCNC1=C2C[C@@H](C)C[C@H](OC)[C@H](O)[C@@H](C)/C=C(\C)[C@H](OC(N)=O)[C@@H](OC)/C=C\C=C(/C)C(=O)NC(=CC1=O)C2=O [Compound 17-AAG, 17-Allylamino-17-demethoxygeldanamycin, reference compound]",inhibition in the HSP90 binding assay (validation with known inhibitors),appropriate rank order of inhibition
